Measured values taken from US6420532B1, “Method of obtaining compositions comprising Y2 specific compounds” (Synaptic Pharmaceutical Corporation, priority 1994, dated 2002).

Protein sequences, listed by entry. Tags and fused reporters are not part of them. Residues count along the entry.
UniProt P25929, whole entry: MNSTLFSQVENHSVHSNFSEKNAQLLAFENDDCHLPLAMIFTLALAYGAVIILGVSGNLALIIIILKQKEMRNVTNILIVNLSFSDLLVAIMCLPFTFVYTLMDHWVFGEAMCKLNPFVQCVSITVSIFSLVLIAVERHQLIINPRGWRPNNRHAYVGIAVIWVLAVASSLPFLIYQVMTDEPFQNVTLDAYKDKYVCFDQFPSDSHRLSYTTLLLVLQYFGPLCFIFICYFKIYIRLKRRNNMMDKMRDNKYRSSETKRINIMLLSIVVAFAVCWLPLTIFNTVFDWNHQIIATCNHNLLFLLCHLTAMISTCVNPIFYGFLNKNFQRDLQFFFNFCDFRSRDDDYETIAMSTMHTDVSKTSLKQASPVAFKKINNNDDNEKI
UniProt P49146, whole entry: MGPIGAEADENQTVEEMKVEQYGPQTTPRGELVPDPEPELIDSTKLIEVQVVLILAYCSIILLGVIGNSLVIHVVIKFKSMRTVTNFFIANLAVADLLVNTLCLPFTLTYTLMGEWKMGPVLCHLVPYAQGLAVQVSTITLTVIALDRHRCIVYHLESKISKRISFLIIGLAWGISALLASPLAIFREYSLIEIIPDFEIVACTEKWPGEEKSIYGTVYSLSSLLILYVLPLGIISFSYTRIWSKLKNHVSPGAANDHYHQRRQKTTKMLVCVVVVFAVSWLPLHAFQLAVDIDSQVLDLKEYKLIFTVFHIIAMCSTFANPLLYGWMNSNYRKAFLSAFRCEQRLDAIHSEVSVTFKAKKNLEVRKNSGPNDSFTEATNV
UniProt Q9ERC0, 1-381 L20F/T266M: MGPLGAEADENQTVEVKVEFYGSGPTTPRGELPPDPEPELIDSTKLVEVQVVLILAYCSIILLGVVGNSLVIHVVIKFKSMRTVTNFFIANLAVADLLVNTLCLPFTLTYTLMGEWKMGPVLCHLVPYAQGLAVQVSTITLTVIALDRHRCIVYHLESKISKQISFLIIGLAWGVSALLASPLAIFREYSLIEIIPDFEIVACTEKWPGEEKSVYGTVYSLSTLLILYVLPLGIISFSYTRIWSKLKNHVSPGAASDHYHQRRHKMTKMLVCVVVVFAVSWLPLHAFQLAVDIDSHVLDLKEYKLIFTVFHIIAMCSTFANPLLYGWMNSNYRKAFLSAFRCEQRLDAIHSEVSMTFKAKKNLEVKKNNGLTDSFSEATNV

How the values were obtained:
human Y1 receptors = target: T1, human Y1 receptors (Homo sapiens, UniProt P25929); experiment: Association time course and saturation binding of 125I-PYY, COS-7 membranes expressing human Y1
T1 construct: expressed in transfected cells; host or cells: COS-7 (transient, DEAE-dextran)

[1] = target: T2, CG-13 receptors (human Y2 receptor) (Homo sapiens, UniProt P49146); experiment: Association time course and saturation binding of 125I-PYY, COS-7 membranes expressing CG-13; details: 0.06 nM 125I-PYY
T2 construct: expressed in transfected cells; host or cells: COS-7 (transient, DEAE-dextran)

rat Y2b receptor = target: T3, rat Y2b receptor (Rattus norvegicus, UniProt Q9ERC0, L20F/T266M); experiment: Specific binding of 125I-PYY, COS-7 membranes expressing rat Y2b; details: 0.08 nM 125I-PYY, 30° C., 120 min
T3 construct: rs26a also encoded a full-length rat Y2 receptor; expressed in transfected cells; host or cells: COS-7 (transient); 3.9 kb SalI/KpnI genomic fragment of rs26a in EXJ.HR
Excerpt: The rat Y2b clone, which differs from rat Y2a by two amino acid changes one in the N-terminal tail (from Leu^20 to Phe^20) and another in the third intracellular loop (from Thr^266 to Met^266), has been subjected only to a preliminary investigation. […] It remains to be determined whether there exist any pharmacological or functional differences between the rat Y2a and rat Y2b receptors.

^125I-PYY
Kobs (monophasic) (human Y1 receptors): 0.06 ± 0.02 min⁻¹ | Kobs, slow phase [1]: 0.02 ± 0.00 min⁻¹ | observed association constant (Kobs), rapid phase [1]: 1.28 ± 0.02 min⁻¹ | 125I-PYY bound (rat Y2b receptor): 310 fmol/mg membrane protein
